From patent US20040096815A1, “Method of identifying an eventual modification of at least one biological parameter making use of living cells which are subjected to a stress and living cells which are not subjected to this same stress” (COLETICA, priority 2002, published 2004)

System: pigmented reconstructed skins
Details: solar irradiation 561 KJ/m^2 twice per week for two weeks; 8 μl cosmetic formulation with active at 3%, 10 days

## Hesperitine Laurate [Flavagrum ®]
  MTT cellular viability, percentage with respect to the non-irradiated control: 88%
